From BindingDB's records for doi:10.1016/j.bmcl.2015.12.052 (Janssen Research and Development, 2016)

Molecular target: T1, P2X purinoceptor 7 (Rattus norvegicus, UniProt Q64663)
T1 sequence (Q64663 whole entry): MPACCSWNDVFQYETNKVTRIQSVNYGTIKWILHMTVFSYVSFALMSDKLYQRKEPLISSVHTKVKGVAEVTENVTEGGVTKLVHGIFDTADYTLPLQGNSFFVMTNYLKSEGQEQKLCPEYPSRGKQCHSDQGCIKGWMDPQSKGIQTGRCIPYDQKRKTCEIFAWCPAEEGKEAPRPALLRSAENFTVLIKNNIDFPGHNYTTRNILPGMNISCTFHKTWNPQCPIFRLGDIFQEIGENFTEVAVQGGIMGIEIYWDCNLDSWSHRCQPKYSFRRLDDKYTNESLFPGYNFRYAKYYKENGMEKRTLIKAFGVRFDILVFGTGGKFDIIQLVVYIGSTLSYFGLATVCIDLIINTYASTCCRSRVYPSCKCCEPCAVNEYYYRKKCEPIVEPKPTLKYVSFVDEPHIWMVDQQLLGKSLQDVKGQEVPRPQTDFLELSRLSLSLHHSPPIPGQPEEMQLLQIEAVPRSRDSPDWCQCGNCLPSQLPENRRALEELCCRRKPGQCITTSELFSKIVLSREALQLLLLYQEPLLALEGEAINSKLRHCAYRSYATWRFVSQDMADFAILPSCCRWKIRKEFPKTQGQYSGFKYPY
Test: Antagonist activity at rat P2X7 receptor expressed in 1321N1 cells assessed as inhibition of Bz-ATP-induced Ca2+ flux after 30 mins by FLIPR assay

## C[C@@H]1Cn2c(nnc2-c2cnccn2)C(=O)N1Cc1cccc(C(F)(F)F)c1Cl [US10047092, 15]
  IC50: > 10 µM
